Experimental data: patent US20210252008A1, “BIARYL COMPOSITIONS AND METHODS FOR MODULATING A KINASE CASCADE” (Athenex, Inc., priority 2004, published 2021)

Columns and labels:
[1] = tested on: osteoclast precursors derived from spleen cells; assay: Effect on osteoclast formation; conditions: 5 days, RANKL and M-CSF
FAK Tyr 925 = assay: Intracellular phosphorylation levels: FAK Tyr 925; conditions: c-Src/NIH-3T3 and HT-29 cells; FIG. 2
osteoclasts = assay: Effect on osteoclast survival; conditions: 48 hours, RANKL and M-CSF
[2] = tested on: Chinchillas, noise-induced hearing loss; assay: Protection against noise-induced hearing loss; conditions: chinchilla; round window application; 4 kHz band noise 105 dB SPL four hours; day 1, 7, 21; in most cases
She Y239/240 = assay: Intracellular phosphorylation levels: She Y239/240; conditions: c-Src/NIH-3T3 and HT-29 cells; FIG. 3
[3] = tested on: osteoclasts on bone slices; assay: Effect on bone resorption in vitro (bone slices)
Paxillin Y-31 = assay: Intracellular phosphorylation levels: Paxillin Y-31; conditions: c-Src/NIH-3T3 cells; FIG. 4

COc1cc2c(Nc3c(Cl)ccc4c3OCO4)ncnc2cc1OCCCN1CCCCC1
number of TRAP-positive osteoclasts vs untreated control (formation) ([1]; FIG. 17): reduced the number of TRAP-positive osteoclasts | formation of osteoclasts vs untreated control ([1]; stained, FIG. 16): inhibited the formation of osteoclasts | phosphorylation of FAK Tyr 925 (Src trans-phosphorylation) (FAK Tyr 925): inhibited | survival of osteoclasts vs untreated control (osteoclasts; FIG. 18): inhibited the survival of osteoclasts | number of TRAP-positive osteoclasts vs untreated control (survival) (osteoclasts; FIG. 19): reduced the number of TRAP-positive osteoclasts | average dB threshold shifts of treated ears vs control [2]: lower | phosphorylation of She Y239/240 (Src trans-phosphorylation) (She Y239/240): inhibited | number of osteoclasts on the bone slices vs untreated control ([3]; FIG. 20A): reduced the number of osteoclasts on the bone slices | number of resorption pits on the bone slices vs untreated control ([3]; FIG. 20B): reduced the number of resorption pits | number of TRAP-positive osteoclasts on the bone slices vs untreated control ([3]; TRAP stain, FIG. 21A): reduced the number of TRAP-positive osteoclasts | number of resorption pits on the bone slices vs untreated control ([3]; Toluidine Blue stain, FIG. 21B): reduced the number of resorption pits | phosphorylation of Paxillin Y-31 (Src trans-phosphorylation) (Paxillin Y-31): inhibited
